# Assay results from US20120220567A1, “BENZO-FUSED OXAZEPINE COMPOUNDS AS STEAROYL-COENZYME A DELTA-9 DESATURASE INHIBITORS” (priority 2009, published 2012).
# Sequences of proteins named here, by UniProt entry; tags and fusion partners are left off.
# UniProt O00767, whole entry: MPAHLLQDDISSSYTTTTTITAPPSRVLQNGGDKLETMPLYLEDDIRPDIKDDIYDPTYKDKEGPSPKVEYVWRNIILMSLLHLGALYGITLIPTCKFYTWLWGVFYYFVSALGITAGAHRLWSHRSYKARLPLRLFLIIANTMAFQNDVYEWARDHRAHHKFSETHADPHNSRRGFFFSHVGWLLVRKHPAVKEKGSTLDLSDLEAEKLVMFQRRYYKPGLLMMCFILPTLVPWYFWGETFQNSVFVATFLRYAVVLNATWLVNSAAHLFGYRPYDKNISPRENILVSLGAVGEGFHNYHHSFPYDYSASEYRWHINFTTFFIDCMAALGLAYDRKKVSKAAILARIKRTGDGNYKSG
# Where two headings read alike, the source gives them in different places.
# Target: SCD-1 (Homo sapiens, UniProt O00767)
# Assay: Stearoyl-CoA desaturase assay (HepG2 cell P2 pellet)
# Settings: read-out: Ave IC50 nM, protein from HepG2 cell P2 pellet, 20 μM stearoyl-CoA, 15 min at 25° C.
# [1] = Table 1, compounds of formula (Ia)
# [2] = Table 3, compounds of formula (Ic)
# [3] = Table 2, compounds of formula (Ib)
IC50 [1] [nM],IC50 [2] [nM],Compound,also measured
500 to 10000,–,CC(=O)NCC(=O)N1CCC2(CC1)CCN(Cc1cccc(C(F)(F)F)c1)c1cccc(Cl)c1O2,–
500 to 10000,–,CCc1ccc(CN2CCC3(CCN(C(=O)CNC(=O)CCC(=O)O)CC3)Oc3ccccc32)cc1,–
–,500 to 10000,O=C(NCC1CCCCC1)c1ccc(N2CCC3(CC2)CCN(Cc2cccc(C(F)(F)F)c2)c2ccccc2O3)nn1,–
500 to 10000,–,CCc1ccc(CN2CCC3(CCN(C(=O)CNC(=O)CCC(=O)OC)CC3)Oc3ccccc32)cc1,–
–,50 to 499,COC(=O)CCNC(=O)c1ccc(N2CCC3(CC2)CCN(Cc2ccc(C(C)(C)C)cc2)c2cccc(F)c2O3)nn1,–
–,50 to 499,CC(C)(C)c1ccc(CN2CCC3(CCN(c4ccc(C(=O)NCCc5ccncc5)cn4)CC3)Oc3c(F)cccc32)cc1,–
–,50 to 499,CC(C)(C)c1ccc(CN2CCC3(CCN(c4ccc(C(=O)NCCc5cccnc5)cn4)CC3)Oc3c(F)cccc32)cc1,–
500 to 10000,–,CC(=O)NCC(=O)N1CCC2(CC1)CCN(Cc1cccc(C(F)(F)F)c1)c1cc(F)ccc1O2,–
–,–,CC(C)(C)OC(=O)CCNC(=O)c1cnc(N2CCC3(CC2)CCN(Cc2cccc(C(F)(F)F)c2)c2cccc(F)c2O3)s1,IC50 [3]: 50 to 499 nM
–,–,CNC(=O)c1cnc(N2CCC3(CC2)CCN(Cc2cccc(C(F)(F)F)c2)c2cccc(F)c2O3)s1,IC50 [3]: 0.5 to 49 nM
–,50 to 499,CC(C)(C)c1ccc(CN2CCC3(CCN(c4ccc(C(=O)NCCC5CC5)cn4)CC3)Oc3ccccc32)cc1,–
–,–,COC(=O)CCNC(=O)c1cnc(N2CCC3(CC2)CCN(Cc2ccc(C(C)(C)C)cc2)c2cccc(F)c2O3)s1,IC50 [3]: 0.5 to 49 nM
